A short description of assay [1]: Agonist effect on the Dopamine D4.2 receptor was determined by evaluating effective concentration causing stimulation of mitogenesis.
Test in assay [2]: as above
This is another data set of the same source.

Each structure is given as a SMILES string. Structures can show the parent of a compound that is named as a salt.

As a reminder, the EC50 is the concentration at which the effect is half-maximal. A low value points to higher potency in that assay. Turning to `c1ccc(C2=N[C@@H](CN3CCN(c4ccccc4)CC3)CN2)cc1` [1-Phenyl-4-((R)-2-phenyl-4,5-dihydro-1H-imidazol-4-ylmethyl)-piperazine; hydrochloride], the EC50 in assay [1] and in assay [2] was 31 nM in each case.

(Values after BindingDB's records for doi:10.1016/s0960-894x(01)00484-x (Friedrich-Alexander University, 2001).)
